Data: US12329765B2, “Targeted nanoparticle for the treatment of traumatic brain injury and other CNS diseases” (priority 2021, dated 2025)

Legend:
[1] = system: liver, kidneys, lungs, and spleen; details: none of the changes significant
[2] = In vivo toxicity: body weight examinations; details: rat
Protocol: Before treatment, body weight was determined for all the animals. During the course of observation period of 35 days, the animals were followed up twice daily for symptoms of any adverse effect and were physically examined for the sign of morbidity throughout the study period.
On day 0, 15 and 35, all the animals were weighed, and their weights were recorded.

CN(C)c1ccc(O)c2c1C[C@H]1C[C@H]3[C@H](N(C)C)C(O)=C(C(N)=O)C(=O)[C@@]3(O)C(O)=C1C2=O [minocycline, Minocycline]
liver pathologies (infiltrating cell clusters, suspicious necrotic hepatic cells) [1]: Mild or negligible liver pathologies
apparent toxicity on repeated administration [2]: did not cause any apparent toxicity
